The results in this text go back to PMC7017188.

For the assay, the target named is biotinylated 60S ribosomal subunit. The assay is described as follows: AlphaScreen or HTRF; homogeneous, in solution in 384-well plates; serial dilution of His-tagged eIF6 with 0.5 nM 60S-Bio; streptavidin donor beads capture 60S-Bio, Ni-NTA acceptor beads His-eIF6 (20 ug/mL each); PBS pH 7.4, 5 mM MgCl2, 0.2% BSA, 0.02% Tween-20; room temperature. (Alpha assays give light when donor and acceptor beads are brought close together.)

With “His-tagged eukaryotic initiation factor 6 (eIF6), full length recombinant (from UniProt P56537 1-245) (natural protein)”, the Kd (in general, the concentration at which binding is half-saturated) came out at 40 nM. This lies in the double-digit nanomolar range.
